# Laboratory results taken from article PMC4926433, “Isoquercitrin Esters with Mono- or Dicarboxylic Acids: Enzymatic Preparation and Properties” (International Journal of Molecular Sciences, 2016).
# Experiment: Partition coefficient (log P) in octan-1-ol/phosphate buffer pH 7.4
# Settings: octan-1-ol/phosphate buffer pH 7.4, 25 °C
# Protocol: The hydrophobicity of the prepared compounds was determined by the measurement of partition coefficient P in a mixture of two immiscible phases—octan-1-ol and 6.6 mM phosphate buffer pH 7.4 to simulate physiological conditions. Before the use, octan-1-ol was stirred with the buffer for 16 h at 25 °C to achieve saturation of both phases, which were then separated.
# Then, 150 µL of the stock solutions were mixed with 150 µL of the respective immiscible phase in microcentrifuge tubes (1.5 mL) and stirred (750 rpm) for 2 h at 25 °C in triplicates. Phases were separated and the solute concentration in each phase was determined in 96-well microtitration plates using Sunrise™ spectrophotometer (Schoeller Instruments, Prague, Czech Republic) at 400 nm. Log P was calculated as follows: log Poct/buffer = log([A]octan-1-ol/[A]buffer).
smiles,measurement,value
"C[C@@H]1O[C@@H](OC[C@H]2O[C@@H](Oc3c(-c4ccc(O)c(O)c4)oc4cc(O)cc(O)c4c3=O)[C@H](O)[C@@H](O)[C@@H]2O)[C@H](O)[C@H](O)[C@H]1O [Rutin, quercetin-3-O-[α-L-rhamnopyranosyl-(1→6)-β-D-glucopyranose], reference compound]",log P,−0.39
